Results published in ChEMBL document CHEMBL5338751, “Discovery of the First-in-Class Intestinal Restricted FXR and FABP1 Dual Modulator ZLY28 for the Treatment of Nonalcoholic Fatty Liver Disease” (J Med Chem, 2023).

Legend:
[1] = molecular target: T1, Bile acid receptor (Mus musculus) (UniProt Q60641); experiment: Activation of FXR in C57BL/6 mouse liver assessed as upregulation of SHP gene expression at 20 mg/kg, po administered for 5 days and measured after 1 hr post final dose by RT-PCR analysis; assay type: organism-based; details: filed as activator, time 5.0 day
T1 sequence (whole entry): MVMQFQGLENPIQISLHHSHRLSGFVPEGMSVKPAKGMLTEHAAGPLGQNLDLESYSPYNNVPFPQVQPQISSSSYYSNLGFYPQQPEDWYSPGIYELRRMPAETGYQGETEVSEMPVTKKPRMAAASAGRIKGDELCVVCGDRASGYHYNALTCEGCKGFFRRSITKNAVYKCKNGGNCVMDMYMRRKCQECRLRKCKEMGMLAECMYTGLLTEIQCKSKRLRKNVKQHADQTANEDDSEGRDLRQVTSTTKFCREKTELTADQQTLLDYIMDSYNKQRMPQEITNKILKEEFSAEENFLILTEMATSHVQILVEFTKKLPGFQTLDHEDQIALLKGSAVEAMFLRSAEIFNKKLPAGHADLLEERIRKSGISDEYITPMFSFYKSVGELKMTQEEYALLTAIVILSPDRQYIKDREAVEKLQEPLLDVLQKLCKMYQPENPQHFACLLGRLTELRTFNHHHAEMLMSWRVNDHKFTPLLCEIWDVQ

[2] = molecular target: T1, Bile acid receptor (Mus musculus); experiment: Activation of FXR in C57BL/6 mouse liver assessed as upregulation of BSEP gene expression at 20 mg/kg, po administered for 5 days and measured after 1 hr post final dose by RT-PCR analysis; assay type: organism-based; details: filed as activator, time 5.0 day
[3] = molecular target: T1, Bile acid receptor (Mus musculus); experiment: Activation of FXR in C57BL/6 mouse liver assessed as upregulation of OST-beta gene expression at 20 mg/kg, po administered for 5 days and measured after 1 hr post final dose by RT-PCR analysis; assay type: organism-based; details: filed as activator, time 5.0 day
[4] = molecular target: T1, Bile acid receptor (Mus musculus); experiment: In vivo activation of FXR pathway in western diet and CCl4-induced nonalcoholic steatohepatitis C57BL/6 mouse model assessed as upregulation of SHP gene expression in liver at 20 mg/kg, po administered for 12 weeks starting from week 8 and change in dose for every 5 days by RT-PCR analysis; assay type: functional, organism-based; details: time 4.0 weeks
[5] = molecular target: T1, Bile acid receptor (Mus musculus); experiment: In vivo activation of FXR pathway in western diet and CCl4-induced nonalcoholic steatohepatitis C57BL/6 mouse model assessed as upregulation of BSEP gene expression in liver at 20 mg/kg, po administered for 12 weeks starting from week 8 and change in dose for every 5 days by RT-PCR analysis; assay type: functional, organism-based; details: time 4.0 weeks
[6] = molecular target: T1, Bile acid receptor (Mus musculus); experiment: In vivo activation of FXR pathway in western diet and CCl4-induced nonalcoholic steatohepatitis C57BL/6 mouse model assessed as upregulation of OST-beta gene expression in liver at 20 mg/kg, po administered for 12 weeks starting from week 8 and change in dose for every 5 days by RT-PCR analysis; assay type: functional, organism-based; details: time 4.0 weeks
[7] = molecular target: T1, Bile acid receptor (Mus musculus); experiment: In vivo activation of FXR pathway in western diet and CCl4-induced nonalcoholic steatohepatitis C57BL/6 mouse model assessed as downregulation of CYP7A1 level in liver at 20 mg/kg, po administered for 12 weeks starting from week 8 and change in dose for every 5 days; assay type: functional, organism-based; details: time 4.0 weeks

- Activity [1]: Active
- Activity [3]: Active
- Activity [4]: Active
- Activity [6]: Active
- Activity [7]: Active
SMILES: O=C(O)Cc1ccc(-c2ccc(OCc3c(-c4c(Cl)cccc4Cl)noc3C3CC3)cc2)cc1
- Activity [2]: Active
- Activity [5]: Active

Active and inactive are the calls of the source. No cut-off for these calls is given here.
